{"sequences": {"note": "Amino acid sequences for entries named in this document (tags omitted). A change or cut given only in a name is not applied to a line headed by its entry.", "UniProt P01375, whole entry": "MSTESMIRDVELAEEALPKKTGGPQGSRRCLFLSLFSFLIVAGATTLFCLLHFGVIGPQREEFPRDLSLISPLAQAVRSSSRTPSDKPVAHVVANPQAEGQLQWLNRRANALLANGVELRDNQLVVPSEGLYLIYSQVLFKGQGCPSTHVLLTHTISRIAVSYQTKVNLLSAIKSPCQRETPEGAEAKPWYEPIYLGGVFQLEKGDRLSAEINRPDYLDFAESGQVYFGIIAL"}, "source": "paper PMC8166883", "about": "(Cellular and Molecular Immunology, 2020)", "binders": {"B1": {"name": "anti-human TNFα clone #314AM-043-01 (after two rounds of affinity maturation of #314) (antibody, V domains shown)", "VH": "EVQLLESGGGLVQPGGSLRLSCAASGFTFSSYAMSWVRQAPGKGLEWVSAISSSSGGSTYYADSVKGRFTISRDNSKNTLYLQMNSLRAEDTAVYYCARSIVGATLDFDYWGQGTTVTVSS", "VL": "DIQMTQSPSSLSASVGDRVTITCRASQSISDYLHWYQQKPGKAPKLLIYDASNLESGVPSRFSGSGSGTDFTLTINSLQPEDFATYYCQQYYSTPLTFGQGTKLEIK"}, "B2": {"name": "anti-human TNFα clone #314 (antibody, V domains shown)", "VH": "not shown", "VL": "B1 VL"}, "B3": {"name": "anti-hVEGF-A clone C018AM-20 (affinity-matured from C018) (antibody, V domains shown)", "VH": "EVQLLESGGGLVQPGGSLRLSCAASGFTFSSYAMSWVRQAPGKGLEWVSSISGSGGNTYYADSVKGRFTISRDNSKNTLYLQMNSLRAEDTAVYYCAKDTERIQLWLGFDYWGQGTPVTVSS", "VL": "B1 VL with Q27E, D31S, H34A, D50A, A51P"}, "B4": {"name": "anti-hVEGF-A clone C018 (antibody, V domains shown)", "VH": "not shown", "VL": "B1 VL with Q27E, D31S, H34A, D50A, A51P"}}, "key": {"[1]": {"target": "T1, FLAG-tagged human tumor necrosis factor α (FLAG-hTNFα) (Homo sapiens, UniProt P01375)", "T1 construct": "human tumor necrosis factor α", "assay": "SPR; Biacore T200; mAb held by anti-hIgG capture antibodies amine-coupled to a CM5 chip; purified antigen serially diluted in HBS-EP+ (100, 33.3, 11.1, 3.7, 1.23, 0.412 nM) injected 240 s at 30 µL/min, 300 s dissociation; 1:1 Langmuir binding model with mass transfer; KD calculated as kd/ka", "details": "both partners purified"}, "[2]": {"target": "T2, FLAG-tagged human vascular endothelial growth factor-A (FLAG-hVEGF-A) (Homo sapiens, UniProt P15692-4)", "T2 construct": "human vascular endothelial growth factor-A; The cell-based assays used bought recombinant hVEGF165 (Pepro Tech), not this construct", "assay": "SPR; Biacore T200; mAb held by anti-hIgG capture antibodies amine-coupled to a CM5 chip; purified antigen serially diluted in HBS-EP+ (100, 33.3, 11.1, 3.7, 1.23, 0.412 nM) injected 240 s at 30 µL/min, 300 s dissociation; 1:1 Langmuir binding model with mass transfer; KD calculated as kd/ka", "details": "both partners purified"}}, "note": "Changes are numbered by the printed parent chain."}
{"binder": "B1", "values": [{"measurement": "binding result", "setting": "[1]", "value": "binds"}]}
{"binder": "B2", "values": [{"measurement": "binding result", "setting": "[1]", "value": "binds"}]}
{"binder": "B3", "values": [{"measurement": "Kd", "setting": "[2]", "value": 0.0149, "unit": "nM"}]}
{"binder": "B4", "values": [{"measurement": "Kd", "setting": "[2]", "value": 1.61, "unit": "nM"}]}
